# Laboratory results from patent publication US20100291236A1, “OSMIUM COMPOUNDS” (THE UNIVERSITY OF WARWICK, priority 2006, published 2010).
# Test: Acidity (pKa / pKa*) of coordinated water, 1H NMR pH* titration
# Conditions: D2O, pH* range 2-9
# Text: pKa* calculations. […] The chemical shifts of the arene ring protons were plotted against pH*. The pH* titration curves were fitted to the Henderson-Hasselbalch equation, with the assumption that the observed chemical shifts are weighted averages according to the populations of the protonated and deprotonated species.
substance,measurement,value
"[(η^6-p-cym)Os(N-2,4-difluoride-Ph-picolinamide)Cl]PF6 [Compound 8]",pKa* of the aqua adduct,7.33
